Results reported in US9427001B2, “Enhanced bioavailable iodine molecules” (ZINPRO CORPORATION, priority 2011, dated 2016).

## Zinc Glycine Iodide [Example IV]
In vivo
  Average Serum iodine level (day 2-day 14): 380
Nonlactating pregnant beef cows, 60 mg Iodine/day for 10 days
  Serum iodine Day 10 (last treatment day): 637
